Measurements reported in ChEMBL document CHEMBL1153136, “Novel benzoylpiperidine-based stearoyl-CoA desaturase-1 inhibitors: Identification of 6-[4-(2-methylbenzoyl)piperidin-1-yl]pyridazine-3-carboxylic acid (2-hydroxy-2-pyridin-3-ylethyl)amide and its plasma triglyceride-lowering effects in Zucker fatty rats” (Bioorg Med Chem Lett, 2010).

Biological target: T1, Acyl-CoA desaturase 1 (Mus musculus, UniProt P13516)
T1 sequence (P13516 whole entry): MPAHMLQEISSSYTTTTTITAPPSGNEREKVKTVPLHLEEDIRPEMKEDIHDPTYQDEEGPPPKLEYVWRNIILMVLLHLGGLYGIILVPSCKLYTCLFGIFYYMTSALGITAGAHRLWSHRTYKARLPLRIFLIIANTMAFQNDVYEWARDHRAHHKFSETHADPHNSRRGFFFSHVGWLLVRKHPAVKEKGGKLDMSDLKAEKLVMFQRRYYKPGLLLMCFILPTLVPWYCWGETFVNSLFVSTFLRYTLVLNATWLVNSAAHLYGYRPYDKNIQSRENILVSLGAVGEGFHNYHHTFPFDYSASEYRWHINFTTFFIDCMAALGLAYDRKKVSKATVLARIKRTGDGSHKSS
Assay: Inhibition of Scd1 in mouse liver microsomes assessed as conversion of [14C]stearate to [14C]oleate pretreated for 10 mins measured after 60 mins
Set-up: species or system Microsome

IC50: 6 nM
Structure (SMILES): O=C(NCCc1ccccc1)c1ccc(N2CCN(C(=O)c3ccccc3C(F)(F)F)CC2)nn1
